The record followed here is ChEMBL document CHEMBL1126524, “Derivatives of quinuclidine as 5-HT3 receptor antagonists: influence of an additional carbonyl group on the recognition of chirality by the receptor” (Bioorg Med Chem Lett, 1993).

Amino acid sequences for entries named in this document (tags omitted). Residues count along the entry.
UniProt P35563, 24-483 limits assumed: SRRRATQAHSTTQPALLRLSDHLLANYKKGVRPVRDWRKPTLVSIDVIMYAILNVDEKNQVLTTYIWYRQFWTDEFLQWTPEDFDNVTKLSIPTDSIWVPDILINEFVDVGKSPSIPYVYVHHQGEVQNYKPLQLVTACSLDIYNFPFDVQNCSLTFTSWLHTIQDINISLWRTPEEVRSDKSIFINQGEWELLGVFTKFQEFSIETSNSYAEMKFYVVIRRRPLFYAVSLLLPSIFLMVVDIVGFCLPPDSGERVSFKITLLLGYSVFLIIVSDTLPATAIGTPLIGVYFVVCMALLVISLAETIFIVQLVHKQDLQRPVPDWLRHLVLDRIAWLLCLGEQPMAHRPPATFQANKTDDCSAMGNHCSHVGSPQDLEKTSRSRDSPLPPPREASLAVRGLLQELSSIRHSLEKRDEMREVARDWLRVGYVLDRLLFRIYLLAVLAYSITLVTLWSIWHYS
UniProt Q9JJ16, 22-437 limits assumed: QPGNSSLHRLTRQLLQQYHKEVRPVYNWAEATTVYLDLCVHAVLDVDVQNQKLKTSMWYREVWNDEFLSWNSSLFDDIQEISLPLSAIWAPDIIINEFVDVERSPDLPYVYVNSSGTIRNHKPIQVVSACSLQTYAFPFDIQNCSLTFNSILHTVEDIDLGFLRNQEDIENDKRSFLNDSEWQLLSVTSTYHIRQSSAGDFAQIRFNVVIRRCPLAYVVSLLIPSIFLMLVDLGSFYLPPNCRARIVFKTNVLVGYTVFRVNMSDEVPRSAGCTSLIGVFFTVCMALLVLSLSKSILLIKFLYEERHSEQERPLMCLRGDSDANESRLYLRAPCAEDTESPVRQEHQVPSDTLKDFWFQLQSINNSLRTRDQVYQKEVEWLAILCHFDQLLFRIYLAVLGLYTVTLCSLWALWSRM

The target of the test is Serotonin 3 (5-HT3) receptor (Rattus norvegicus, UniProt P35563+Q9JJ16). As to the kind of experiment: Binding affinity at 5-hydroxytryptamine 3 receptor in rat entorhinal cortex by [3H]BRL-43694 displacement.

`COc1cc(N)c(Cl)cc1C(=O)O[C@@H]1CN2CCC1CC2` showed a Ki of 0.7 nM.
The molecule `COc1cc(N)c(Cl)cc1C(=O)O[C@H]1CN2CCC1CC2` gave a Ki of 3.6 nM. Compared with the last molecule, the Ki is about 5.1-fold higher.
